# Compound activity (PubChem)
# The list is not random: actives were taken first. Their share in the collection is about 1.5%.
# RAD54 branch = inhibitors of human RAD54 branch migration | AID 602329 | RAD54 Holliday junction branch migration, FAM/BHQ fluorescence | hit rate 0.14% among 360,000 | Q92698 | inhibition, % at 10.4 µM;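 active = mean normalized replicate activity at least 40 and at least half of replicates scoring 40 or more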;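 also: 0% = median of neutral control wells and 100% = median of positive control wells; inhibitors cause a drop in the FAM fluorescence signal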
# CASP6 VEID inh = blocks human caspase-6 cleavage activity; inhibition, % at 12.5 µM; purified caspase-6, Z-VEID-R110 cleavage fluorescence; hit rate 0.53% among 350,000; P55212;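 active = mean inhibition across replicates at least about 35%, with every replicate also reaching that limit, limit read from the data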;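 also: 0% = median of neutral control wells and 100% = no fluorescence left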
# PglD inh = blocks C. jejuni PglD acetyltransferase activity; purified PglD enzyme, DTNB colorimetric CoA detection; hit rate 0.098% among 360,000; inhibition, % at 12.5 µM; in the data active = inhibition above about 16%, passing the limit was not always enough
# GSIS activator = GLuc luminescence reporter in INS-1E cells, primary screen for activators of glucose-dependent secretion of insulin. INS-1E GLuc reporter insulin secretion, 2-3 h. activation, % at 16.6 µM. hit rate 0.61% among 370,000;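 active = lowest replicate activation of at least 40%, so every replicate reaches that level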;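 also: 0% = median of neutral control wells and 100% = median of IBMX positive control wells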
# RAD52 inh = RAD52 (human) annealing inhibition; AID 651710; inhibition, % at 18.7 µM; P43351; hit rate 0.46% among 360,000; recombinant RAD52 DNA annealing, FRET fluorescence;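 active = every replicate showing at least 50% inhibition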
# Yeast UUG start = yeast start codon fidelity modulation | S. cerevisiae UUG-firefly luciferase reporter, luminescence/redox ratio | activity score, % at 18.7 µM | hit rate 0.13% among 350,000 | AID 602363;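 active means replicate mean at a twofold rise or more, about +100% in these data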;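 further: firefly luciferase made from a UUG start codon reports start codon fidelity; reporter light over untreated wells divided by growth signal over untreated wells; some hits fall short of that in this replicate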
# * hit, by the source's call; nt = not tested or not shown.
[1] O=C(Nc1cccc(Oc2ccc(C(=O)O)c(C(=O)O)c2)c1)c1ccc(-c2ccccc2)cc1
[2] Cc1cc(C(=O)OCC(=O)NCc2ccc3c(c2)OCO3)c2ccccc2n1
[3] COc1ccc(CNC(=O)COC(=O)c2cc(C)nc3ccccc23)cc1
[4] O=C(C[n+]1ccc(/C=C/c2ccccc2)cc1)c1ccc2c(c1)OCCO2
[5] CCC(=O)N1CCC(C)(C(=O)Nc2ccc(OC)c(OC)c2)C1 (configuration not stated)
[6] Cc1ccc(Sc2ccc(S(=O)(=O)Nc3ccc(CC(=O)O)cc3)cc2)cc1C
entry no.	1	2	3	4	5	6
RAD54 branch	4	nt	-3	26	-4	4
CASP6 VEID inh	42*	1	1	10	-10	41*
PglD inh	8	nt	6	1	-5	4
GSIS activator	-2	15	46*	-23	-1	-2
RAD52 inh	-1	-11	-12	76*	-11	-32
Yeast UUG start	-4	nt	-17	-5	-10	-1

[7] Cc1ccc(C)c(Sc2ccc(S(=O)(=O)Nc3ccc(C(=O)O)cc3)cc2)c1
[8] O=C1NC(=S)NC(=O)C1Nc1ccc(Cl)cc1
[9] CC(C)(C)CC(C)(C)n1nnnc1N
[10] CCN(CCO)Cc1csc2cc(C)ccc12
[11] CN1C(=O)CCS(=O)(=O)C1c1ccc(Cl)c(Cl)c1 (configuration not stated)
[12] CC(=O)c1ccc(-c2cnc3c(NC=O)cc(-c4ccc(C(=O)NC5CC5)cc4)cn23)cc1
entry no.	7	8	9	10	11	12
RAD54 branch	-2	5	nt	nt	2	5
CASP6 VEID inh	27	1	5	2	57*	9
PglD inh	0	-5	nt	nt	-1	-2
GSIS activator	nt	nt	15	47*	8	0
RAD52 inh	-11	-15	8	-1	-1	-51
Yeast UUG start	-12	-9	nt	nt	-8	-4

[13] O=C(c1cccs1)N1CCC2(O)CCCCC2C1c1ccc(F)cc1 (configuration not stated)
[14] CCN(CC)c1ccc(C2C3CCCCC3(O)CCN2C(=O)c2cccs2)cc1 (configuration not stated)
[15] COc1ccc(C2C3CCCCC3(O)CCN2C(=O)c2cccs2)cc1 (configuration not stated)
[16] CCOc1cc(N2CCOCC2)c(OCC)cc1NC(=O)COC(=O)CCOc1cc(C)ccc1C
[17] Cc1ccc2nc(NCCCO)nc(-c3ccccc3)c2c1
[18] NNc1nc(-c2ccccc2)c2cc(Br)ccc2n1
entry no.	13	14	15	16	17	18
RAD54 branch	nt	nt	-10	-4	-1	1
CASP6 VEID inh	nt	nt	nt	0	nt	17
PglD inh	nt	nt	-8	-4	-2	0
GSIS activator	54*	-16	48*	-33	nt	49*
RAD52 inh	nt	nt	nt	-1	nt	-49
Yeast UUG start	nt	nt	1	-12	5	-20

[19] OCCCNc1nc(-c2ccccc2)c2cc(Br)ccc2n1
[20] CC(=O)c1cccc(NC(=O)CSc2nc(=O)n(CCCN3CCOCC3)c3c2CCC3)c1
[21] COC1=CC(=O)C(C2CC(=O)c3c(O)cc(O)cc3O2)=CC1=O (configuration not stated)
[22] COP(=O)(OC)c1ccc(NCc2cc(O)ccc2O)cc1
[23] NCC(c1ccccc1)(c1ccccc1)c1ccccc1
[24] Nc1nc(O)c(N=Nc2ccc(S(N)(=O)=O)cc2)c(=O)[nH]1
entry no.	19	20	21	22	23	24
RAD54 branch	-2	-6	nt	nt	nt	nt
CASP6 VEID inh	1	1	44*	53*	-2	6
PglD inh	12	-5	nt	nt	nt	nt
GSIS activator	55*	7	-4	7	nt	1
RAD52 inh	-11	-20	-12	-3	-11	-5
Yeast UUG start	-15	-15	nt	nt	nt	nt

[25] NS(=O)(=O)c1ccc(N=Nc2c[nH]c(=O)c(O)c2)cc1
[26] C[C@H]1CN([C@@H](C)CO)C(=O)c2cc(NC(=O)CCC(F)(F)F)ccc2O[C@H]1CN(C)S(C)(=O)=O
[27] O=C(CN1CCN(C/C=C/c2ccccc2)CC1)NCc1ccccc1
[28] Cc1noc(C)c1COc1ccccc1C(=O)N(C)CC(=O)Nc1ccc(F)c(F)c1F
[29] CC1(CC(=O)N/N=C/c2cc([N+](=O)[O-])c(O)cc2O)OCCO1
[30] O=C1NC(=O)C(CC(=O)N(Cc2cccs2)C2(C(=O)NC3CCCCC3)CCCCC2)N1 (configuration not stated)
entry no.	25	26	27	28	29	30
RAD54 branch	-90	6	nt	6	nt	nt
CASP6 VEID inh	89*	-1	0	53*	69*	nt
PglD inh	-9	-2	nt	-4	nt	nt
GSIS activator	-23	27	-2	2	-38	-2
RAD52 inh	-387	-13	-8	-1	-21	nt
Yeast UUG start	22	-12	nt	-7	nt	nt

# Sorted by value in GSIS activator (largest number first): 3 of the compounds above.
No.	compound	GSIS activator
30	O=C1NC(=O)C(CC(=O)N(Cc2cccs2)C2(C(=O)NC3CCCCC3)CCCCC2)N1 (configuration not stated)	-2
25	NS(=O)(=O)c1ccc(N=Nc2c[nH]c(=O)c(O)c2)cc1	-23
29	CC1(CC(=O)N/N=C/c2cc([N+](=O)[O-])c(O)cc2O)OCCO1	-38

# Shown as a hit in RAD52 inh, of those listed so far:
no.	SMILES	CASP6 VEID inh	PglD inh	GSIS activator	RAD52 inh	Yeast UUG start
4	O=C(C[n+]1ccc(/C=C/c2ccccc2)cc1)c1ccc2c(c1)OCCO2	10	1	-23	76*	-5

# Next section
[31] CC(C)(C(=O)N1CCC1(C)C(=O)NS(=O)(=O)c1cccc(F)c1)c1ccccc1 (configuration not stated)
[32] CC(C)(C(=O)N1CCC1(C)C(=O)NS(=O)(=O)c1cccc(Cl)c1)c1ccccc1 (configuration not stated)
[33] O=C(CSc1nnc(-c2ccc(O)cc2)o1)Nc1ccc2c(c1)OCCO2
[34] Cc1nn(-c2ccccc2)c2c1C(=O)N(Cc1ccccc1)C(=O)C(C)(C)C2
[35] Cc1nn(-c2ccccc2)c2c1C(O)CC(C)(C)C2 (configuration not stated)
[36] Cc1cc(=O)[nH]c2c1c(C)nn2C1CCCC1
entry no.	31	32	33	34	35	36
RAD54 branch	-1	2	5	3	11	1
CASP6 VEID inh	-2	-3	nt	nt	-5	nt
PglD inh	-1	4	-2	4	0	-3
GSIS activator	nt	41*	10	-12	67*	53*
RAD52 inh	0	-8	nt	nt	-3	nt
Yeast UUG start	3	-9	-14	-9	-20	14

[37] Cc1cc(=O)[nH]c2c1c(C)nn2C1CCCCC1
[38] Cc1ccc(C(=O)O)cc1N1C(=O)c2cccc3c([N+](=O)[O-])ccc(c23)C1=O
[39] CN(C)C(=O)C[C@H]1C[C@H]2c3cc(NS(C)(=O)=O)ccc3O[C@H]2[C@@H](CO)O1
[40] O=C1N/C(=N\N=C\c2cccs2)SC1Cc1cccc(Cl)c1 (configuration not stated)
[41] CC1Nc2ncnc(N3CCc4ccccc4C3)c2N(Cc2ccc(Cl)cc2)C1=O (configuration not stated)
[42] CC1Nc2ncnc(N3CCc4ccccc4C3)c2N(Cc2ccc(Br)cc2)C1=O (configuration not stated)
entry no.	37	38	39	40	41	42
RAD54 branch	11	-20	-5	nt	0	1
CASP6 VEID inh	-1	42*	-4	nt	1	-1
PglD inh	1	3	1	nt	-4	-1
GSIS activator	3	-20	10	86*	74*	-14
RAD52 inh	-3	-130	-7	nt	-103	-41
Yeast UUG start	-16	-10	-6	nt	-8	-8

[43] NS(=O)(=O)c1ccc(NC(=S)NC(=O)/C=C/c2ccco2)cc1
[44] CC1CN(C(=O)C2CCCCC2)C(C)CN1C(=O)C1CCCCC1 (configuration not stated)
[45] CC1CCCC(C)N1C(=O)C1CCCCC1 (configuration not stated)
[46] CC(C)CNC(=O)c1coc(=O)c(Br)c1
[47] COc1ccccc1-c1nnc(SCC(=O)N2CCC(C)CC2)o1
[48] CC1CCN(C(=O)CSc2nnc(-c3ccccc3F)o2)CC1
[49] Cc1cc(/C=N/Nc2ccc([N+](=O)[O-])cn2)c(C)n1-c1ccc(C(=O)O)cc1
[50] O=C(Nc1ccc(C(=O)N2CCOCC2)cc1)c1cc(-c2cccnc2)nc2ccc(Br)cc12
entry no.	43	44	45	46	47	48	49	50
RAD54 branch	nt	5	7	-2	3	-6	nt	nt
CASP6 VEID inh	nt	nt	59*	nt	nt	0	43*	1
PglD inh	nt	2	1	-7	0	-4	nt	nt
GSIS activator	1	nt	nt	nt	nt	63*	-16	-18
RAD52 inh	nt	nt	-5	nt	nt	-7	-38	-20
Yeast UUG start	nt	-6	17	-16	-12	-12	nt	nt
